Results: ChEMBL document CHEMBL1268814, “Synthesis and biological evaluation of bivalent ligands for the cannabinoid 1 receptor” (J Med Chem, 2010)

Amino acid sequences for entries named in this document (tags omitted).
UniProt P34972, whole entry: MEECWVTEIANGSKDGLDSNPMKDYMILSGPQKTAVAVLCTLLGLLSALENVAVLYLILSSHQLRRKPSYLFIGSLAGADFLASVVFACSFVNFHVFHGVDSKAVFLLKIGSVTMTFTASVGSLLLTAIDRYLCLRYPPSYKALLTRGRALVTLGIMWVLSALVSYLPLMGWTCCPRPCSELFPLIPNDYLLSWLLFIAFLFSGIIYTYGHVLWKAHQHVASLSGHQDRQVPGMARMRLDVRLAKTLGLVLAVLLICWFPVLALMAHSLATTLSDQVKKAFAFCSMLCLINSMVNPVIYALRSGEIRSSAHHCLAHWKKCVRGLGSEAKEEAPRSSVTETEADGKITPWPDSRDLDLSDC

Biological target: Cannabinoid receptor 2 (Homo sapiens, UniProt P34972)
Test: Displacement of [3H]CP55940 from human CB2 receptor expressed in CHOK1 cells
Type: cell-based, CHO-K1

SMILES: Cc1c(C(=O)NCCCCCCCN(C)CCCCCCCNC(=O)c2nn(-c3ccc(Cl)cc3Cl)c(-c3ccc(Cl)cc3)c2C)nn(-c2ccc(Cl)cc2Cl)c1-c1ccc(Cl)cc1
- Ki: 683 nM
